One assay deals with SKBR3 tumor cell. Put plainly: Binding of anti-HER2 ADC and antibody with SKBR3 tumor cell by FACS. Set-up: species or system human. As for the experimental part: (§1) SKBR3 cells (from ATCC) were collected, counted, and plated in a 96-well plate (Corning, 3795) at 2×10^5 cells/well. The serially diluted sample to be detected was added and incubated at 4° C. for 1 h. After the mixture was washed twice with ice PBS, Alexa Fluor-647 goat anti-human Fc secondary antibody (JacksonImmuno, 109-605-098) was added, and the mixture was incubated at 4° C. for 1 h. After the mixture was washed twice with ice PBS, the cells were resuspended, and the mean fluorescence intensity (MFI) was analyzed using a flow cytometer (BD FACSCanto™ II). Data were analyzed by four-parameter curve fitting using Graphpad Prism software to give EC50 values.
A general note: Flow cytometry measures light scatter and fluorescence of single cells or particles in a stream.

A further assay addresses T1, CDH6 on OVCAR3 cells (human, UniProt P55285 54-790).
T1 construct: whole, on cells; also called CDH6 positive cells OVCAR3; CDH6 high-expression cell strain
T1 sequence (looked up): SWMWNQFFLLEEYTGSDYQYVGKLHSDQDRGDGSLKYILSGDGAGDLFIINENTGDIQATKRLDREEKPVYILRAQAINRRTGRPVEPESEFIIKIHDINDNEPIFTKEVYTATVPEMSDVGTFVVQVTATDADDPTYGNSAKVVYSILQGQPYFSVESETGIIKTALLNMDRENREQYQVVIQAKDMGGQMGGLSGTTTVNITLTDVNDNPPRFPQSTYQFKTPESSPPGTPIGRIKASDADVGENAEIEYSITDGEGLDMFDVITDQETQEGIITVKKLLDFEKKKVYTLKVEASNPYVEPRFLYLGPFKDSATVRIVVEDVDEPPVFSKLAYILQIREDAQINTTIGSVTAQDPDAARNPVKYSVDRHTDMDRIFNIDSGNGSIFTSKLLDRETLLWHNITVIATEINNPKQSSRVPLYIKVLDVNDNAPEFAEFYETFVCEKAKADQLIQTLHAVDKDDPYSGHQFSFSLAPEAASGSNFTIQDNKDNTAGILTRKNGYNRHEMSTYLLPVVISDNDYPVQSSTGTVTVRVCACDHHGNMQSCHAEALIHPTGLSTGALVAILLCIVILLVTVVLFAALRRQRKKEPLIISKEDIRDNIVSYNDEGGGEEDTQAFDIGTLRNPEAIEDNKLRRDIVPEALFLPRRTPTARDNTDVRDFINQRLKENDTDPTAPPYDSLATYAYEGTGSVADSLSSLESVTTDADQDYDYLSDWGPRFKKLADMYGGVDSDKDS
Kind of assay: flow cytometry (FACS) on OVCAR3 cells, Alexa Fluor 647 anti-human Fc secondary antibody, MFI, four-parameter fit. The procedure: as §1, with “OVCAR3” for “SKBR3”, “cells” for “cells (from ATCC)”, “2×10⁵” for “2×10^5”, “Goat” for “goat”, “EC₅₀” for “EC50”

The target of assay [1] is T2, LIV-1 on OVCAR3 tumor cells (human, UniProt Q13433 29-755).
T2 construct: whole, on cells; also called LIV-1 positive cells OVCAR3
T2 sequence (looked up): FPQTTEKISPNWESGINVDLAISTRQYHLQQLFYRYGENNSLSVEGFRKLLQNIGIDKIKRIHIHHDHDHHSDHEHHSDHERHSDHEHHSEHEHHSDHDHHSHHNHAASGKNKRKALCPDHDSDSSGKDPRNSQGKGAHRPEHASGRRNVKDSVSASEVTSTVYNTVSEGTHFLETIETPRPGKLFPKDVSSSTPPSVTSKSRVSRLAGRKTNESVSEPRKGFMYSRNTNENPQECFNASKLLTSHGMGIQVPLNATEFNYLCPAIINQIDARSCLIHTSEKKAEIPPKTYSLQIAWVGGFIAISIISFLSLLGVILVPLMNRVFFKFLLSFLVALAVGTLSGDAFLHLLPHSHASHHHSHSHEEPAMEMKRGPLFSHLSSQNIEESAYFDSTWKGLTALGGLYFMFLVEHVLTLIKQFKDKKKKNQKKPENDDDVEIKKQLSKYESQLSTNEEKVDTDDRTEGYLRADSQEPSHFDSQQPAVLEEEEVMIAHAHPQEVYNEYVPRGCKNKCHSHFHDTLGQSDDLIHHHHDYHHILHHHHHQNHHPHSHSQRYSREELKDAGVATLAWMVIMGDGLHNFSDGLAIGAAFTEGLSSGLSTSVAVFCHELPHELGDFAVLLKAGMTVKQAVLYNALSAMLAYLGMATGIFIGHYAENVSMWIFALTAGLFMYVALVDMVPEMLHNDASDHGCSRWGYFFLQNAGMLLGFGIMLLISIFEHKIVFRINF
The assay is described as above. As for the experimental part: as §1, with “OVCAR3” for “SKBR3”, “cells” for “cells (from ATCC)”, “2×10⁵” for “2×10^5”, “Goat” for “goat”, “EC₅₀” for “EC50”

What is called EC50 is the concentration that produces a half-maximal response. Low readings indicate an effect from little substance, high ones a need for much substance. In the assay on SKBR3 tumor cell, “Trastuzumab: anti-human HER2 monoclonal antibody; VH SEQ ID NO: 1, VL SEQ ID NO: 2 [reference compound]” displayed an EC50 of 3.38 nM.

B1: ADC-L1-19-P1-5 (antibody, human IgG1, kappa, V domains shown)
VH: EVQLVQSGAEVKKPGASVKVSCKASGYTFTDNYINWVRQAPGQRLEWMGWIYPGTGNSYYNEKFKGRVTITVDTSASTAYMELSSLRSEDTAVYLCASSYGDSFDYWGQGTTVTVSS
VL: DIVMTQSPDSLAVSLGERATINCRASQDIRNYLNWYQQKPGQTPKLLISYTSRLHSGVPDRFSGSGSGTDFTLTISSLQAEDVAVYYCQQYSQLPWTFGGGTKVEIKR
modifications: drug-linker L1-19-P1 on cysteine thiols after TCEP reduction; positions not given; DAR 8.2 for the whole conjugate
notes: Antibody-drug conjugate
In the case of B1, in the assay with CDH6 on OVCAR3 cells, the EC50 was determined as 0.53 nM.

B2: ADC-L1-19-7 (antibody, V domains shown)
VH: QVQLVQSGAEVKKPGASVKVSCKASGLTIEDYYMHWVRQAPGQGLEWMGWIDPENGDTEYGPKFQGRVTMTRDTSINTAYMELSRLRSDDTAVYYCAVHNAHYGTWFAYWGQGTLVTVSS
VL: DVVMTQSPLSLPVTLGQPASISCRSSQSLLHSSGNTYLEWYQQRPGQSPRPLIYKISTRFSGVPDRFSGSGSGTDFTLKISRVEAEDVGVYYCFQGSHVPYTFGGGTKVEIKR
modifications: drug-linker L1-19 on cysteine thiols after TCEP reduction; positions not given; DAR 6.5 for the whole conjugate
In assay [1], B2 returned an EC50 of 0.83 nM.

B3: LIV1-Ab-1 (antibody, V domains shown)
VH: QVQLVQSGAEVKKPGASVKVSCKASGLTIEDYYMHWVRQAPGQGLEWMGWIDPENGDTEYGPKFQGRVTMTRDTSINTAYMELSRLRSDDTAVYYCAVHNAHYGTWFAYWGQGTLVTVSS
VL: DVVMTQSPLSLPVTLGQPASISCRSSQSLLHSSGNTYLEWYQQRPGQSPRPLIYKISTRFSGVPDRFSGSGSGTDFTLKISRVEAEDVGVYYCFQGSHVPYTFGGGTKVEIKR
For the molecule B3, the EC50 in assay [1] turned out to be 0.53 nM.

B4: ADC-L1-19-P1-7 (antibody, V domains shown)
VH: QVQLVQSGAEVKKPGASVKVSCKASGLTIEDYYMHWVRQAPGQGLEWMGWIDPENGDTEYGPKFQGRVTMTRDTSINTAYMELSRLRSDDTAVYYCAVHNAHYGTWFAYWGQGTLVTVSS
VL: DVVMTQSPLSLPVTLGQPASISCRSSQSLLHSSGNTYLEWYQQRPGQSPRPLIYKISTRFSGVPDRFSGSGSGTDFTLKISRVEAEDVGVYYCFQGSHVPYTFGGGTKVEIKR
modifications: drug-linker L1-19-P1 on cysteine thiols after TCEP reduction; positions not given; DAR 8.3 for the whole conjugate
In assay [1], B4 came in with an EC50 of 0.67 nM.

B5: ADC-L1-0-7 (antibody, V domains shown)
VH: QVQLVQSGAEVKKPGASVKVSCKASGLTIEDYYMHWVRQAPGQGLEWMGWIDPENGDTEYGPKFQGRVTMTRDTSINTAYMELSRLRSDDTAVYYCAVHNAHYGTWFAYWGQGTLVTVSS
VL: DVVMTQSPLSLPVTLGQPASISCRSSQSLLHSSGNTYLEWYQQRPGQSPRPLIYKISTRFSGVPDRFSGSGSGTDFTLKISRVEAEDVGVYYCFQGSHVPYTFGGGTKVEIKR
modifications: drug-linker L1-0 on cysteine thiols after TCEP reduction; positions not given; DAR 6.7 for the whole conjugate
For the molecule B5, in assay [1], the EC50 came out at 1.45 nM.

For the origin of these results see patent publication US20250304717A1, “CAMPTOTHECIN DERIVATIVE AND LIGAND-DRUG CONJUGATE” (HAINAN SIMCERE ZAIMING PHARMACEUTICAL CO., LTD., priority 2022, published 2025).
